The entries come from a sample that favours hits as a whole.
HCMV UL50-53 inh: disrupts HCMV UL50-UL53 complex binding; HTRF UL50-UL53 interaction, normalized percent inhibition; inhibition, % (no concentration beside the values); 0.15% of 190,000 active; in the data active = inhibition above about 27%, passing the limit was not always enough
GIV-Gai inh: blocks GIV peptide binding to rat Galpha-i3. P08753. Galpha-i3/FITC-GIV peptide fluorescence polarization, 90 min; stronger effect = lower value; scaled: aluminum fluoride 0%, vehicle 100%. percent of control (FP), % (concentration not given with the values). hit rate 0.42% among 210,000. AID 1224905;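 active means replicate mean at 85% of control or lower, very high polarization wells dropped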;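 further: wells of about 15 µL received 100 nL stock; the first replicate is given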
GIV-Gai FP conf: GIV-Galpha-i3 inhibition, FP confirmation; FITC-GIV peptide binding to Galphai3, fluorescence polarization; stronger effect = lower value; fluorescence polarization, mP at 100 µM; shares compounds with GIV-Gai inh; 38% of 580 active;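 active = inhibition score of 15 or more, meaning 100 minus mean polarization as percent of control over three replicates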
GIV-Gai AS conf: confirmation of inhibitors of GIV binding to human Galpha-i3 | shares compounds with GIV-Gai inh | AlphaScreen counts at 100 µM | AID 1259351 | AlphaScreen Galphai3-GIV binding, purified proteins, 90 min; stronger effect = lower value | 39% of 580 active;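 active = inhibition score at or above a set limit, where the score is 100 minus the three-replicate mean percent of control signal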
Numbers without * were called inactive; · = no result given; ! = a repeat was not active.

Values run as follows: HCMV UL50-53 inh | GIV-Gai AS conf | GIV-Gai inh | GIV-Gai FP conf
[1] O=C(CN1C2=NCCCN2c2ccccc21)c1ccc(Cl)c(Cl)c1
 : · | · | 114.9 | ·
[2] Cc1ccc(CSCC(=O)N2CCN(Cc3ccc4c(c3)OCO4)CC2)cc1
 : -15.6 | · | 104.9 | ·
[3] c1ccc(Cn2cc3c(-c4ccccc4)nnc-3c3ccccc32)cc1
 : -59.7 | · | 110.0 | ·
[4] CCOc1ccc2c(c1)c1nnc(-c3ccccc3)c-1cn2Cc1ccccc1
 : -34.1 | 45947 | 71.2* | 63.6
[5] CC(C)(C)N(Cc1ccccc1)C(=O)CSc1nc2c(cnn2-c2ccccc2)c(=O)[nH]1
 : -27.6 | · | · | ·
[6] Cc1csc2nc(-c3cccc(NC(=O)c4ccc(S(N)(=O)=O)cc4)c3)cn12
 : · | · | 95.4 | ·
[7] COc1ccccc1C(=O)Nc1ccccc1SCc1cc(=O)c2ccccc2[nH]1
 : · | 30214 | 52.7* | 53.1*
[8] COc1ccc(C(=O)Nc2ccccc2SCc2cc(=O)c3cccc(C)c3[nH]2)cc1
 : · | · | 105.7 | ·
[9] CCOC(=O)C1CCCN(C(=O)c2sc3ncnc(N4CCN(c5ccccc5)CC4)c3c2C)C1 (centres undefined)
 : · | · | 103.0 | ·
[10] O=C(O)CCN1C(=O)Cc2ccccc2C1=O
 : 103.8 | · | · | ·

Values run as follows: HCMV UL50-53 inh | GIV-Gai AS conf | GIV-Gai inh | GIV-Gai FP conf
[11] NC(=O)CN1C(=O)Cc2ccccc2C1=O
 : 75.7 | 12845* | 62.5* | 57.5*
[12] CC1CC1C(=O)OCC(=O)Nc1ccc(Oc2ccccc2)cc1 (centres undefined)
 : -32.5 | · | · | ·
[13] O=C1c2ccccc2C(=O)C2(O)OCCOC12O (centres undefined)
 : 105.8* | 34751 | 50.9* | 61.8*
[14] CCN(c1ccccc1)C1(O)C(=O)c2ccccc2C1=O
 : · | · | 96.4 | ·
[15] O=C(CC1(O)C(=O)c2ccccc2C1=O)c1ccccc1
 : -41.5 | · | · | ·
[16] CCOC1(O)C(=O)c2ccccc2C(=O)C1(O)OCC (centres undefined)
 : 97.2* | 46438 | 72.0* | 64.6
[17] Cc1ccc(CNC(=O)c2cc3c(=O)oc4ccc(C)cc4c3s2)cc1
 : -40.1 | · | 103.9 | ·
[18] CCc1cc(=O)oc2c(C)c3occc(=O)c3cc12
 : -19.7 | · | 95.1 | ·
[19] N#C/C(=C\N1CCC(C(F)(F)F)CC1)S(=O)(=O)c1ccccc1
 : -28.5 | · | 104.5 | ·
[20] O=C1Oc2ccccc2C2c3sc(=O)[nH]c3SC(c3ccccc3)C12 (centres undefined)
 : 7.4 | · | 112.2 | ·

Values run as follows: HCMV UL50-53 inh | GIV-Gai AS conf | GIV-Gai inh | GIV-Gai FP conf
[21] O=c1[nH]c2c(s1)C1c3ccccc3OC3CCCC(S2)C31 (centres undefined)
 : -141.5 | 30587 | 71.7* | 39.8*
[22] CSc1nnc(C)c(=O)[nH]1
 : -14.2 | · | 97.8 | ·
[23] CCOC(=O)c1ccc(-n2c(C)cc(C=C3C(=O)N(C)C(=S)N(C)C3=O)c2C)cc1
 : -5.2 | · | 113.5 | ·
[24] CCOC(=O)c1ccc(-n2c(C)cc(C=C3C(=O)NC(=S)NC3=O)c2C)cc1
 : · | 10801* | 77.9* | 64.4
[25] Cc1ccc(-c2csc(-c3c(N)c(C(=O)c4ccc5c(c4)OCO5)n4ccccc34)n2)cc1C
 : -16.5 | · | 89.1 | ·
[26] Nc1c(-c2nc(-c3ccc(F)cc3)cs2)c2ccccn2c1C(=O)c1ccc2c(c1)OCO2
 : -17.7 | 34447 | 74.9* | 79.8
[27] COc1ccc(Cl)cc1NC(=O)Cn1c(=O)n(CCC(=O)NCc2ccc3c(c2)OCO3)c(=O)c2ccccc21
 : -16.2 | · | 104.6 | ·
[28] COc1ccc(C(=O)c2sc3nc(C)cc(C(F)(F)F)c3c2N)cc1OC
 : · | 55081 | 62.5* | 69
[29] COC(=O)c1sc2nc(C)cc(C(F)(F)F)c2c1N
 : -12.9 | · | · | ·
[30] Cc1cc(C(F)(F)F)c2c(N)c(C(=O)Nc3cccc(C(F)(F)F)c3)sc2n1
 : · | 56533 | 81.7* | 62.5

Values run as follows: HCMV UL50-53 inh | GIV-Gai AS conf | GIV-Gai inh | GIV-Gai FP conf
[31] CCc1nc2sc(C(=O)Nc3cccc(C(F)(F)F)c3)c(N)c2cc1C
 : · | · | 108.4 | ·
[32] O=C(/C=C/Sc1nc2cc(Cl)ccc2s1)c1ccc(F)cc1
 : 5.3 | · | 104.1 | ·
[33] O=C(Nc1ccc2c(c1)OCO2)C1CCN(c2cc(-c3ccccc3)ncn2)CC1
 : 5.7 | · | 110.5 | ·
[34] CC(CBr)(NS(=O)(=O)c1ccccc1)c1ccccc1 (centres undefined)
 : 24.0 | · | · | ·
[35] CCOC(=O)c1ccccc1NC(=O)/C(C#N)=C/c1ccc(-c2ccc(Cl)cc2)o1
 : -18.6 | 11443* | 75.5* | 31.3*
[36] N#C/C(=C/c1ccc(-c2ccc(S(N)(=O)=O)cc2)o1)C(=O)Nc1cc(Cl)ccc1Cl
 : -15.3 | 30693 | 75.4* | 79.8
[37] Cc1ccc(NC(=O)/C(C#N)=C\c2ccc(-c3ccc(Cl)cc3)o2)c(C)c1
 : -51.0 | · | 106.2 | ·
[38] N#C/C(=C\c1ccc(-c2cc(Cl)ccc2Cl)o1)C(=O)Nc1ccccc1C(=O)O
 : -74.3 | · | 113.4 | ·
[39] O=C(CSc1nnc2c3sc(N4CCCC4)nc3ncn12)Nc1ccc2c(c1)OCO2
 : · | 27926 | 30.5* | 82.7
[40] O=C(CSc1nnc2c3sc(N4CCCC4)nc3ncn12)Nc1ccc(F)c(F)c1
 : · | · | 110.1 | ·

Quoted from above: nos. 39–40
Values run as follows: HCMV UL50-53 inh | GIV-Gai AS conf | GIV-Gai inh | GIV-Gai FP conf
[39] O=C(CSc1nnc2c3sc(N4CCCC4)nc3ncn12)Nc1ccc2c(c1)OCO2
 : · | 27926 | 30.5* | 82.7
[40] O=C(CSc1nnc2c3sc(N4CCCC4)nc3ncn12)Nc1ccc(F)c(F)c1
 : · | · | 110.1 | ·

Returning to the listing; the 2 compounds before the break are reprinted first.
Values run as follows: HCMV UL50-53 inh | GIV-Gai AS conf | GIV-Gai inh | GIV-Gai FP conf
[39] O=C(CSc1nnc2c3sc(N4CCCC4)nc3ncn12)Nc1ccc2c(c1)OCO2
 : · | 27926 | 30.5* | 82.7
[40] O=C(CSc1nnc2c3sc(N4CCCC4)nc3ncn12)Nc1ccc(F)c(F)c1
 : · | · | 110.1 | ·
[41] O=c1ccc(N2CCN(S(=O)(=O)c3cccc4nsnc34)CC2)nn1-c1ccc(F)cc1
 : -75.5 | · | 105.1 | ·
[42] COC(=O)c1c(-c2ccc(Cl)cc2)noc1N1CCN(c2ccccc2F)CC1
 : -2.0 | 42746 | 71.4*! | 64.3
[43] COC(=O)c1c(-c2ccc(Cl)cc2)noc1N1CCN(C)CC1
 : -26.7 | · | 99.1 | ·
[44] COc1ccc(C2N(c3ccccc3)OC(=O)N2c2ccccc2)cc1 (centres undefined)
 : · | · | 102.8 | ·
[45] COc1ccc(C2=CC(=O)N(c3ccccc3)C(c3ccccc3)O2)cc1 (centres undefined)
 : · | 40592 | 90.0 | 64.7
[46] CCC(C)NC(=O)C1CCN(S(=O)(=O)c2ccc3c(c2)CC(C)N3C(=O)C2CC2)CC1 (centres undefined)
 : -0.2 | · | 102.4 | ·
[47] C=CCNc1nc2c([nH]c3ccccc32)s1
 : · | 13174* | 87.4 | 56.3*
[48] C=CCSc1nnc2c(n1)[nH]c1ccccc12
 : -34.4 | · | 102.6 | ·
[49] Cn1c(/N=C/c2c(O)ccc3ccccc23)nc2ccc(Br)cc21
 : 19.6 | 14331* | 23.3* | 25.3*
[50] CCc1ccc(N=Cc2c(O)ccc3ccccc23)cc1
 : -9.4 | · | · | ·

Values run as follows: HCMV UL50-53 inh | GIV-Gai AS conf | GIV-Gai inh | GIV-Gai FP conf
[51] Cc1ccc(O)c(C=Nc2cc(C)on2)c1
 : -9.0 | · | 98.0 | ·
[52] Cc1cc(N=Cc2c(O)ccc3ccccc23)no1
 : 103.2* | 20466* | -9.8* | 12.7*
[53] CC(=O)c1ccc(NS(=O)(=O)c2cnc(N)nc2)cc1
 : · | · | 110.1 | ·
[54] CCS(=O)(=O)Nc1ccc(C(=O)Nc2cc(C)ccc2OC)cc1
 : -18.3 | · | 102.6 | ·
[55] CN(C(=O)COC(=O)C1CC2C=CC1C2)C1CCCCC1 (centres undefined)
 : -1.0 | · | · | ·
[56] CCN1CC=C2C(C#N)=C(N)C(C#N)(C#N)C(C)C2C1 (centres undefined)
 : -32.9 | · | 94.3 | ·
[57] COc1cc(-c2nc3ccccn3c2N)ccc1O
 : 93.9* | 18629* | 24.0* | 50.7
[58] COc1cc(/C=N/c2c(-c3ccc(O)c(OC)c3)nc3ccccn23)ccc1O
 : -50.8 | · | · | ·
[59] COc1ccc2c(c1)cc(C(=O)Nc1cccc(Br)c1)n2C
 : -8.4 | · | 103.4 | ·
[60] N#Cc1c(N)nc(SCC(=O)c2ccc([N+](=O)[O-])cc2)c(C#N)c1-c1ccccc1
 : · | · | 110.3 | ·

Values run as follows: HCMV UL50-53 inh | GIV-Gai AS conf | GIV-Gai inh | GIV-Gai FP conf
[61] O=C1CC(NCCc2c[nH]c3ccccc23)C(=O)N1Cc1ccccc1 (centres undefined)
 : -22.8 | · | 100.3 | ·
[62] O=C(O)c1ccccc1C(=O)c1ccccc1
 : 1.7 | · | · | ·
[63] O=C(c1ccccc1)c1cccc2c1NCC2
 : -11.3 | 29262 | 81.0* | 64.9
[64] COc1cc(C(F)(F)F)c(C(=O)NCc2cccc(Cl)c2Cl)cn1
 : -2.4 | · | 106.6 | ·
[65] CCOC(=O)c1sc2nc[nH]c(=O)c2c1C
 : · | · | 103.0 | ·

Along the list, as entered above.
HCMV UL50-53 inh, nos. 40–48, in order: ·, -75.5, -2.0, -26.7, ·, ·, -0.2, ·, -34.4
GIV-Gai inh, nos. 40–48, in order: 110.1, 105.1, 71.4*!, 99.1, 102.8, 90.0, 102.4, 87.4, 102.6
